Data published in US8268869B2, “Vinyl indazolyl compounds” (Eli Lilly and Company, priority 2009, dated 2012).

System: bFGF induced ERK phosphorylation
Settings: female nude mice, oral gavage, 2 hours, bFGF i.v., heart tissue

## C[C@@H](Oc1ccc2[nH]nc(/C=C/c3cnn(CCO)c3)c2c1)c1c(Cl)cncc1Cl [Example 1, (R)-(E)-2-(4-(2-(5-(1-(3,5-Dichloropyridin-4-yl)ethoxy)-1H-indazol-3-yl)vinyl)-1H-pyrazol-1-yl)ethanol]
  TEC90 (concentration necessary to achieve 90% inhibition of phospho-Erk): 28 nM
